Some of these compounds have results that are not shown, active ones among them.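 How tested: cells in 96-well plates exposed to compound for 48 hours at five concentrations. The concentration for 50% growth inhibition is given as GI50. At the TGI there is no net growth.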
Experiments:
Experiment in all cases: DTP human tumour cell line panel, 48 h
OVCAR-4 ovarian = system: OVCAR-4 ovarian
IGROV1 ovarian = system: IGROV1 ovarian
RPMI-8226 leukemia = system: RPMI-8226 leukemia
UACC-62 melanoma = system: UACC-62 melanoma
SF-268 CNS = system: SF-268 CNS
NCI-H23 lung = system: NCI-H23 lung
SW-620 colon = system: SW-620 colon
SK-OV-3 ovarian = system: SK-OV-3 ovarian
786-0 renal = system: 786-0 renal
NCI-H226 lung = system: NCI-H226 lung
SF-295 CNS = system: SF-295 CNS
HCC-2998 colon = system: HCC-2998 colon
NCI/ADR-RES ovarian = system: NCI/ADR-RES ovarian
MDA-MB-435 = system: MDA-MB-435
SK-MEL-5 melanoma = system: SK-MEL-5 melanoma
OVCAR-3 ovarian = system: OVCAR-3 ovarian
CCRF-CEM leukemia = system: CCRF-CEM leukemia
SF-539 CNS = system: SF-539 CNS
M14 melanoma = system: M14 melanoma
SNB-19 CNS = system: SNB-19 CNS
SK-MEL-28 melanoma = system: SK-MEL-28 melanoma
OVCAR-5 ovarian = system: OVCAR-5 ovarian
DU-145 prostate = system: DU-145 prostate
MDA-MB-231 breast = system: MDA-MB-231 breast
HOP-62 NSCLC = system: HOP-62 NSCLC
RXF 393 renal = system: RXF 393 renal
ACHN renal = system: ACHN renal
UACC-257 melanoma = system: UACC-257 melanoma
MCF7 breast = system: MCF7 breast
OVCAR-8 ovarian = system: OVCAR-8 ovarian
SNB-75 CNS = system: SNB-75 CNS
A498 renal = system: A498 renal
U251 CNS = system: U251 CNS
EKVX NSCLC = system: EKVX NSCLC
UO-31 renal = system: UO-31 renal
COLO 205 colon = system: COLO 205 colon
SR leukemia = system: SR leukemia
LOX IMVI melanoma = system: LOX IMVI melanoma
SK-MEL-2 melanoma = system: SK-MEL-2 melanoma
BT-549 breast = system: BT-549 breast
TK-10 renal = system: TK-10 renal
CAKI-1 renal = system: CAKI-1 renal
MOLT-4 leukemia = system: MOLT-4 leukemia
SN12C renal = system: SN12C renal
KM12 colon = system: KM12 colon
MDA-N = system: MDA-N
K-562 leukemia = system: K-562 leukemia
HOP-92 NSCLC = system: HOP-92 NSCLC
T-47D breast = system: T-47D breast
NCI-H460 lung = system: NCI-H460 lung
HCT-116 colon = system: HCT-116 colon
A549 NSCLC = system: A549 NSCLC
HS 578T breast = system: HS 578T breast
HL-60(TB) leukemia = system: HL-60(TB) leukemia
PC-3 prostate = system: PC-3 prostate
HT29 colon = system: HT29 colon
HCT-15 colon = system: HCT-15 colon

Work on `CCCC/C=C\C(O)(C(=O)OC1CN2CCC1CC2)c1ccccc1` (centres undefined) yielded a GI50 (OVCAR-4 ovarian) greater than 100 µM, a TGI (OVCAR-4 ovarian) greater than 100 µM and a GI50 (IGROV1 ovarian) greater than 100 µM. The TGI (IGROV1 ovarian) was greater than 100 µM, the GI50 (RPMI-8226 leukemia) was greater than 100 µM and the TGI (RPMI-8226 leukemia) was greater than 100 µM. For the same molecule, the GI50 (UACC-62 melanoma) was greater than 100 µM, the TGI (UACC-62 melanoma) was greater than 100 µM and the GI50 (SF-268 CNS) was greater than 100 µM. For the same molecule, the TGI (SF-268 CNS) was greater than 100 µM, the GI50 (NCI-H23 lung) was greater than 100 µM and the TGI (NCI-H23 lung) was greater than 100 µM. The GI50 (SW-620 colon) was greater than 100 µM, the TGI (SW-620 colon) was greater than 100 µM and the GI50 (SK-OV-3 ovarian) was greater than 100 µM. The TGI (SK-OV-3 ovarian) was greater than 100 µM, the GI50 (786-0 renal) was greater than 100 µM and the TGI (786-0 renal) was greater than 100 µM. The GI50 (NCI-H226 lung) was greater than 100 µM, the TGI (NCI-H226 lung) was greater than 100 µM and the GI50 (SF-295 CNS) was greater than 100 µM. For the same molecule, the TGI (SF-295 CNS) was greater than 100 µM, the GI50 (HCC-2998 colon) was greater than 100 µM and the TGI (HCC-2998 colon) was greater than 100 µM. The GI50 (NCI/ADR-RES ovarian) was greater than 100 µM, the TGI (NCI/ADR-RES ovarian) was greater than 100 µM and the GI50 (MDA-MB-435) was greater than 100 µM. It also gave a TGI (MDA-MB-435) greater than 100 µM, a GI50 (SK-MEL-5 melanoma) greater than 100 µM and a TGI (SK-MEL-5 melanoma) greater than 100 µM. The GI50 (OVCAR-3 ovarian) was greater than 100 µM, the TGI (OVCAR-3 ovarian) was greater than 100 µM and the GI50 (CCRF-CEM leukemia) was greater than 100 µM. It also gave a TGI (CCRF-CEM leukemia) greater than 100 µM, a GI50 (SF-539 CNS) greater than 100 µM and a TGI (SF-539 CNS) greater than 100 µM. It also gave a GI50 (M14 melanoma) greater than 100 µM, a TGI (M14 melanoma) greater than 100 µM and a GI50 (SNB-19 CNS) greater than 100 µM. The TGI (SNB-19 CNS) was greater than 100 µM, the GI50 (SK-MEL-28 melanoma) was greater than 100 µM and the TGI (SK-MEL-28 melanoma) was greater than 100 µM. It also gave a GI50 (OVCAR-5 ovarian) greater than 100 µM, a TGI (OVCAR-5 ovarian) greater than 100 µM and a GI50 (DU-145 prostate) greater than 100 µM. For the same molecule, the TGI (DU-145 prostate) was greater than 100 µM, the GI50 (MDA-MB-231 breast) was greater than 100 µM and the TGI (MDA-MB-231 breast) was greater than 100 µM. The GI50 (HOP-62 NSCLC) was greater than 100 µM, the TGI (HOP-62 NSCLC) was greater than 100 µM and the GI50 (RXF 393 renal) was greater than 100 µM. The TGI (RXF 393 renal) was greater than 100 µM, the GI50 (ACHN renal) was greater than 100 µM and the TGI (ACHN renal) was greater than 100 µM. It also gave a GI50 (UACC-257 melanoma) greater than 100 µM, a TGI (UACC-257 melanoma) greater than 100 µM and a GI50 (MCF7 breast) greater than 100 µM. It also gave a TGI (MCF7 breast) greater than 100 µM, a GI50 (OVCAR-8 ovarian) greater than 100 µM and a TGI (OVCAR-8 ovarian) greater than 100 µM. For the same molecule, the GI50 (SNB-75 CNS) was greater than 100 µM, the TGI (SNB-75 CNS) was greater than 100 µM and the GI50 (A498 renal) was greater than 100 µM. It also gave a TGI (A498 renal) greater than 100 µM, a GI50 (U251 CNS) greater than 100 µM and a TGI (U251 CNS) greater than 100 µM. The GI50 (EKVX NSCLC) was greater than 100 µM, the TGI (EKVX NSCLC) was greater than 100 µM and the GI50 (UO-31 renal) was greater than 100 µM. The TGI (UO-31 renal) was greater than 100 µM, the GI50 (COLO 205 colon) was greater than 100 µM and the TGI (COLO 205 colon) was greater than 100 µM. For the same molecule, the GI50 (SR leukemia) was greater than 100 µM, the TGI (SR leukemia) was greater than 100 µM and the GI50 (LOX IMVI melanoma) was greater than 100 µM. The TGI (LOX IMVI melanoma) was greater than 100 µM, the GI50 (SK-MEL-2 melanoma) was greater than 100 µM and the TGI (SK-MEL-2 melanoma) was greater than 100 µM. The GI50 (BT-549 breast) was greater than 100 µM, the TGI (BT-549 breast) was greater than 100 µM and the GI50 (TK-10 renal) was greater than 100 µM. The TGI (TK-10 renal) was greater than 100 µM, the GI50 (CAKI-1 renal) was greater than 100 µM and the TGI (CAKI-1 renal) was greater than 100 µM. It also gave a GI50 (MOLT-4 leukemia) greater than 100 µM, a TGI (MOLT-4 leukemia) greater than 100 µM and a GI50 (SN12C renal) greater than 100 µM. The TGI (SN12C renal) was greater than 100 µM, the GI50 (KM12 colon) was greater than 100 µM and the TGI (KM12 colon) was greater than 100 µM. It also gave a GI50 (MDA-N) greater than 100 µM, a TGI (MDA-N) greater than 100 µM and a GI50 (K-562 leukemia) greater than 100 µM. For the same molecule, the TGI (K-562 leukemia) was greater than 100 µM, the GI50 (HOP-92 NSCLC) was greater than 100 µM and the TGI (HOP-92 NSCLC) was greater than 100 µM. It also gave a GI50 (T-47D breast) greater than 100 µM, a TGI (T-47D breast) greater than 100 µM and a GI50 (NCI-H460 lung) greater than 100 µM. It also gave a TGI (NCI-H460 lung) greater than 100 µM, a GI50 (HCT-116 colon) greater than 100 µM and a TGI (HCT-116 colon) greater than 100 µM. The GI50 (A549 NSCLC) was greater than 100 µM, the TGI (A549 NSCLC) was greater than 100 µM and the GI50 (HS 578T breast) was 24.7 µM. It also gave a TGI (HS 578T breast) greater than 100 µM, a GI50 (HL-60(TB) leukemia) greater than 100 µM and a TGI (HL-60(TB) leukemia) greater than 100 µM. For the same molecule, the GI50 (PC-3 prostate) was greater than 100 µM, the TGI (PC-3 prostate) was greater than 100 µM and the GI50 (HT29 colon) was greater than 100 µM. The TGI (HT29 colon) was greater than 100 µM, the GI50 (HCT-15 colon) was greater than 100 µM and the TGI (HCT-15 colon) was greater than 100 µM.

From PubChem BioAssay (NCI)
